Test results: US12697352B2, “Instructions for composition and sensitivity” (Azura Ophthalmics Ltd., priority 2020, dated 2026)

Key:
[1] = taken by mouth; cited from earlier work
patients = conditions: one of the ophthalmic studies described
Excerpt: In a clinical study three different concentrations were used; 0.1 wt. %, (10 subjects) 0.5 wt. % (12 subjects) and 1 wt. % (26 subjects).

[2] = long-term topical use of the lotion, person with an open lesion on their scalp; cited from earlier work

Molecule | oral dose that may be toxic [1] [μg per day] | concentrations at which the phototoxicity effect is observed (at least as low as) (patients) | time to resolution of signs and symptoms of systemic toxicity after discontinuing [2] [days]
[Se] [Selenium] | > 400 |  | 
selenium disulfide [SeS2] |  | about 0.5 wt. % | ≤ 10
